Experimental data taken from patent EP3423441B1, “IODINATED ANALOGS OF CHOLINE, METHODS OF PREPARATION THEREOF, AND USE THEREOF AS MEDICAMENTS” (Univerzita Palackého v Olomouci, priority 2016, dated 2017).

Experiment: Binding to plasmatic proteins
Conditions: plasma

OCC[N+]1(Cc2ccc(I)cc2)CCCC1 [Example 20, 1-(2-hydroxyethyl)-1-(4-iodobenzyl)pyrrolidin-1-ium 4-methylbenzenesulfonate]
fraction unbound: 0.921
